Chains of the proteins cited; added tags and fusions are not shown. Residues count along the entry.
UniProt P52333, 781-1124 limits assumed: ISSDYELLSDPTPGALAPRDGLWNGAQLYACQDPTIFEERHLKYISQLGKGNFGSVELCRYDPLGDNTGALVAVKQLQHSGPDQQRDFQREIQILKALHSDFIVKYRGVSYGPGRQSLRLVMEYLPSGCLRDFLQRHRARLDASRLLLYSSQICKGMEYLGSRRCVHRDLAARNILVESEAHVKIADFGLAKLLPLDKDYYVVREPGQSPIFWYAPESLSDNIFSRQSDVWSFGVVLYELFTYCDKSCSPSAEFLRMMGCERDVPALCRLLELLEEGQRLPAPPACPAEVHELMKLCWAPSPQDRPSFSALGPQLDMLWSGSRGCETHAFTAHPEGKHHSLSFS

According to patent US20240150367A1, “NITROGEN-CONTAINING SPIRO CYCLIC COMPOUNDS AND PHARMACEUTICAL USE THEREOF” (Japan Tobacco Inc., priority 2009, published 2024):

Target: hJAK3 kinase domain (aa781-end) (Homo sapiens (Human), UniProt P52333)
Assay: JAK3 activity inhibition, kinase reaction (Test 1)
Settings: for IC50: read-out: JAK3 IC50

CC1CN(C(=O)CC#N)C12CCN(c1ncnc3[nH]ccc13)C2 (stereo not drawn) [Compound 6, 3-[3-methyl-6-(7H-pyrrolo[2,3-d]pyrimidin-4-yl)-1,6-diazaspiro[3.4]oct-1-yl]-3-oxopropionitrile] was tested, and the IC50 was 7.1 nM.
Compound CC1CN(C(=O)CC#N)C12CCN(c1ncnc3[nH]ccc13)C2 (stereo not drawn) [Compound 10] has an inhibition at 0.1 µM (read-out: JAK3 % Inhibition) of 28%.
Work on CC1CN(C(=O)CC#N)C12CCN(c1ncnc3[nH]ccc13)C2 (stereo not drawn) [Compound 19] yielded an IC50 of 400 nM.
